This is an account of results in PMC12703741, “Light-Activated Metal-Dependent Protein Degradation: A Heterobifunctional Ruthenium(II) Photosensitizer Targeting New Delhi Metallo-β-lactamase 1” (Journal of the American Chemical Society, 2025).

Amino acid sequences for entries named in this document (tags omitted). Residues count along the entry.
UniProt C7C422, 31-270 limits assumed: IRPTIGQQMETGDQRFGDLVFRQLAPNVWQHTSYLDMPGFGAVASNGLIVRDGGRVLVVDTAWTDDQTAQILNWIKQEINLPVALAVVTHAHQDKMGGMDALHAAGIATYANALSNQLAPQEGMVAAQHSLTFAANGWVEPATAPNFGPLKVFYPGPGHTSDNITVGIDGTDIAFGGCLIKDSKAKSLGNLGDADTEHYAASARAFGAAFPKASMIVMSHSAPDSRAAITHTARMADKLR
UniProt C7C422, 29-270 limits assumed: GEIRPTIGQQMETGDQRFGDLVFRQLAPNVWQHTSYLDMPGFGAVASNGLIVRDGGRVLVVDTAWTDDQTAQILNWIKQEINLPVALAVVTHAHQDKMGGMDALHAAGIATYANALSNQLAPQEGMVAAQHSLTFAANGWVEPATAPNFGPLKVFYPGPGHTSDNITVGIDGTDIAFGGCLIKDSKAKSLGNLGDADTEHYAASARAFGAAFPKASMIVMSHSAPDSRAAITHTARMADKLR

The test system of series [1] is E. coli NDM-1. The following applies: 320 μM, 1 h. As for the experimental part:
(§1) In parallel, a control set was incubated without compounds for 50 min, followed by incubation with 75 μM meropenem trihydrate for 10 min. Cells were then pelleted, washed, resuspended in water, lysed, and clarified before LC-MS analysis.
(§2) 1.12 LC-MS accumulation assay
(§3) 1.12.1 Bacterial Strains and Growth Conditions:
(§4) Accumulation assay was performed two E. coli K-12 MG1655 strains transfected with pSU18 vector containing NDM-1 expression or an empty vector control. Cell growth was performed in Luria-Bertani (LB) broth (NaCl 10g/L, K2HPO4 6.3 g/L, KH2PO4 1.8 g/L, sodium citrate […]
(§5) 1.12.2 Preparation of Accumulation Assay Samples for LC-MS Analysis:
(§6) Assay was adapted from the work of Geddes et al. and Widya et al.9–11 E. coli MG1655 pSU18 NDM-1 and pSU18 Empty were grown from single colonies at 37 °C with aeration, while shaking at 180 rpm for 18 hours. The overnight suspensions were subcultured (1:100) in fresh LB and incubated to yield an OD600 of 0.55-0.60. The were harvested and pelleted at 3500 × g for 15 minutes at 4 °C. The pellets were washed with Meuller -Hinton II (MHII) broth and pelleted again under the same conditions. The pellets were resuspended in a n adjusted volume of fresh MHII to achieve an OD 600 ≈ 10.0. Shielded from ambient light, cells were incubated with 320 μM of metal complex for 1 hour while shaking at 180 rpm. […]
(§7) nM were also prepared to assess quantitative accuracy. […]

In series [2] the test system is E. coli empty. The following applies: 320 μM, 1 h. As for the experimental part:
as §1, §2, §3, §4, §5, §6, §7

Series [3] in a line: Luminescence lifetime of the excited state. In kind it is physicochemical. The following applies: PBS.
A short description of series [4]: 1O2 quantum yield by DPBF photooxidation. In kind it is physicochemical. Particulars: oxygenated methanol, 450 nm.
Series [5] can be described thus: Photostability by UV-Vis in PBS. It is filed as physicochemical. The following applies: 10 μM, 450 nm. The procedure:
Both complexes were stable up to and including 23 J cm^–2 (Figure S5). The lifetime of the excited state is one of the key factors which affect ROS generation. […] To quantify the generation of ^1O2 produced by the complexes, 1,3-diphenylisobenzofuran (DPBF) was used as a ^1O2 scavenger. […]
spectra of both compounds in PBS ( 10 μM) under light irradiation (450 nm, 23 J cm -2 over 240 […]
1.2.4 Electron Paramagnetic Resonance (EPR)
All EPR measurements were performed using a Bruker Magnettech spectrometer (ESR5000), Bruker (Germany), at room temperature. EPR samples were transferred to a 20 μL BLAUBRAND micropipette and spectra were recorded at 9.47 GHz microwave frequency, 2 mW microwave power, 100 kHz modulation frequency and 0.1 mT modulation amplitude. The field was scanned from 331.3 mT to 343.3 mT and a single scan was acquired.

Series [6] has as its target NDM-1 (Klebsiella pneumoniae, UniProt C7C422). Particulars: recombinant NDM-1, nitrocefin.
Series [7] deals with NDM-1 in E. coli NDM-1 (Klebsiella pneumoniae, UniProt C7C422). Particulars: E. coli NDM-1, nitrocefin.
The test system of series [8] is HCT116.
For series [9], the system named is HEK293T.
The subject of series [10] is HaCaT.
Series [11] concerns HeLa.
In series [12] the test system is HepG2.
The subject of series [13] is RAW264.7. The following applies: RAW.
Series [14] has as its system hTERT RPE-1.
A short description of series [15]: Chromatographic LogD measurement. Particulars: pH 7.4.

Several values for one entry are separate records, joined by “and”; a condition that tells them apart may be missing. Equal values may be shown once. Read-outs that look alike come from different tables or passages of the source.

For the substance “[Ru(2,2'-bipyridine)2(1-(4-(3-aminophenyl)pyridine-2,6-dicarboxylic acid)-imidazo[4,5,f][1,10]phenanthroline)](PF6)2 [Ru1]”, the Accumulation in series [1] is on record as 370 nM/OD600; in series [2] it was 604 nM/OD600. In series [3], the “Luminescence lifetime of excited state” value was 481 ns. In series [4], the “1O2 quantum yield (ΦΔ)” value is listed as 0.89. In addition, the “Light dose up to which complex is stable” value in series [5] is recorded as at least 23 J cm^–2. For the same substance, the IC50 was 23 ± 1.4 µM in [6] (read-out: IC50(dark), dark); 0.22 ± 0.02 µM in series [6] (read-out: IC50(light), light 450 nm, 20 J cm^-2); 22.4 µM and 22 µM in series [7] (read-out: IC50(dark), dark); 0.75 ± 0.054 µM in series [7] (read-out: IC50(light), light 450 nm, 60 J cm^-2). The LD50 is over 50 µM in [8] (HCT116, 24 h); over 50 µM in series [8] (HCT116, 48 h); over 50 µM in series [9] (24 h); over 50 µM in series [9] (48 h); over 50 µM in series [10] (24 h); over 50 µM in [10] (48 h). Further, the LD50 in series [11] (24 h) was over 50 µM; in [11] (48 h) it was over 50 µM; in series [12] (HepG2, 24 h), over 50 µM; in series [12] (HepG2, 48 h), over 50 µM; in series [13] (24 h), over 50 µM; in [13] (48 h), over 50 µM. Moreover, the LD50 in [14] (RPE1, 24 h) is reported as over 50 µM; in series [14] (RPE1, 48 h), over 50 µM. For the same substance, the ChromLogD in series [15] is on record as -0.04.

A word on the IC50: it is the midpoint of a concentration-inhibition curve.
